Consider one compound from US20090048229A1, “Methods for promoting wakefulness” (priority 2007, published 2009).

The test system of this test is total cholinesterase activity in the brain. As to the kind of experiment: Total cholinesterase activity in brain homogenate after i.p. injection. The test is classed as in vivo, rat. The following applies: 2 mg/kg i.p., brain 3 hours after injection. On the procedure: Male Wistar rats were injected intraperitoneally (i.p.) with rivastigmine or with compounds of the invention. […] Animals were decapitated 3 hours after injection and the brains rapidly removed. The brain tissue was diced into small pieces, placed on ice and immediately homogenized with a Polytron PT1200 (Kinematic AG) in 10 ml ice cold Tris with 0.1% Triton-X and protease inhibitors. The protease inhibitors in the extraction buffer were Antipain (10 μM), Aprotinin (5 TIU/mg protein), Bestatin ([…]), Leupeptin (10 μM) and Pepstatin (1 μM). The final dilution of the homogenate in the final assay mixture was 120-fold.
Total cholinesterase activity was determined by a modification of the colorimetric method of Ellmann, et al. (Biochem. Pharmacol., 7:88-95 (1961)), as described above. Hydrolysis of acetylthiocholine was monitored indirectly by measurement of the formation of the conjugate between thiocholine and DTNB. Optical density at 405 nm was recorded during five (5) minutes employing a microplate spectrophotometer (Polarstar, BMG Labtech), and plotted against time. The initial rates were calculated from the slope of the linear portion of the graph.
Cholinesterase activity was normalized for protein content of the homogenate. […]

`CCN(C)C(=O)Oc1cccc([C@H](C)N(C)C)c1` [Compound 1, S-rivastigmine, reference compound] came in with a ChE inhibition of 15%.
